Target: T1, P2X purinoceptor 2 (Homo sapiens, UniProt Q9UBL9)
T1 sequence (Q9UBL9 whole entry): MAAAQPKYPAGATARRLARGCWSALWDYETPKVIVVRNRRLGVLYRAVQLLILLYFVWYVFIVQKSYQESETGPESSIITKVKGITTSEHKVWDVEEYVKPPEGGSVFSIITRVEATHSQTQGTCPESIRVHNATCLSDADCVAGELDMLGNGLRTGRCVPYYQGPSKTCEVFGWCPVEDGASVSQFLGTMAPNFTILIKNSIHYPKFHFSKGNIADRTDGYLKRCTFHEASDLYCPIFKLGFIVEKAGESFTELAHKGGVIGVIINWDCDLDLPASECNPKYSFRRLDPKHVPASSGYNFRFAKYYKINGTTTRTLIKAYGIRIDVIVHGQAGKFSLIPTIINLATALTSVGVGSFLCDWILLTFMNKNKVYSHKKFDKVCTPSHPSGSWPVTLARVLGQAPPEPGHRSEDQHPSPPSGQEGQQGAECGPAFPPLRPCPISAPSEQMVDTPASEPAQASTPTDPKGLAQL

SMILES	IC50
Cc1cnc(-c2cc(OC3CCCNC3)cc(C(=O)N[C@H](C)c3cnc(C(F)(F)F)nc3)c2)s1 (single isomer, unassigned)	1.68 µM
Cc1cnc(-c2cc(OC3CCN(C)C(C(F)(F)F)C3)cc(C(=O)N[C@H](C)c3cnc(C(F)(F)F)nc3)c2)s1 (single isomer, unassigned)	0.109 µM
Cc1cnc(-c2cc(OCC3(F)CCCN(C)C3)cc(C(=O)N[C@H](C)c3cnc(C(F)(F)F)nc3)c2)s1 (single isomer, unassigned)	0.31 µM
Cc1cnc(-c2cc(OC(C)C(C)O)cc(C(=O)N[C@H](C)c3ccc(C(F)(F)F)nn3)c2)s1 (single isomer, unassigned)	0.706 µM

From ChEMBL document CHEMBL5726182, “1,3-thiazol-2-yl substituted benzamides” (2019)
